Test results reported in publication PMC3795654, “Combinatorial Optimization of Cystine-Knot Peptides towards High-Affinity Inhibitors of Human Matriptase-1” (PLoS ONE, 2013).

Amino acid sequences for entries named in this document (tags omitted). Residues count along the entry.
UniProt P00760, 24-246 limits assumed: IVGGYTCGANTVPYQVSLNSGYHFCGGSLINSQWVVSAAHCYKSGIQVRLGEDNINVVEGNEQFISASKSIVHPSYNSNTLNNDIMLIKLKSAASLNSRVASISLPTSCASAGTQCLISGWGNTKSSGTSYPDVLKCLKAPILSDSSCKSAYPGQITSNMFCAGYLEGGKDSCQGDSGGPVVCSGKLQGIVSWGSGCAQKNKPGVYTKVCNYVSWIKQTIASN
UniProt Q9Y5Y6, 615-855 limits assumed: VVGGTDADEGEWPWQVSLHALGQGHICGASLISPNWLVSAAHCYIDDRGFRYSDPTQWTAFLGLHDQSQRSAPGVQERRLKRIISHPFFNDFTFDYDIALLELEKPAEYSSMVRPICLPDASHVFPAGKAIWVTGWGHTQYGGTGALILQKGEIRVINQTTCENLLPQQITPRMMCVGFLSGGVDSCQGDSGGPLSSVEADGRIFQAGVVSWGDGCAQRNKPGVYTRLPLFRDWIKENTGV

Experiments:
[1] = molecular target: Bovine pancreatic trypsin (Bos taurus, UniProt P00760); experiment: Trypsin inhibition assay (substrate-independent Ki); details: read-out: Ki (Trypsin); substrate-independent Ki from Ki app (Morrison equation) and Km; 250 µM substrate; preincubation 30 min RT; read over 30 min; triplicate
Method: Human matriptase-1 was produced recombinantly, autocatalytically activated and purified as previously reported, [49], [51], [60]. Bovine pancreatic trypsin, thrombin and uPA were purchased from Sigma-Aldrich and Hepsin from R&D Systems.
Measurements were carried out in triplicate using a Tecan Genios ELISA reader. The normalized residual proteolytic activity (v/v0) of proteases was determined using substrates Boc-QAR-pNA (250 µM, (pNA stands for para-nitro aniline), Boc-QAR-AMC (250 µM, AMC stands for amino-methyl coumarin) or Spectrozym tPA (250 µM, American Diagnostica, CH3SO2-D-CHT-Gly-Arg-pNA AcOH). Product formation was monitored after preincubation (30 min, RT) with inhibitor at different concentrations over 30 min by measuring the absorbance at 405 nm for pNA substrates or the fluorescence emission for AMC substrates (ex. 360 nm, em. 465 nm), respectively. Selectivity data were carried out in duplicates with final protease concentrations of uPA and thrombin of 5 nM. In case of hepsin 50 mM Tris/HCl pH 9.0 was used as assay buffer.
Apparent inhibition constants (Ki ^app) were calculated by fitting the Morrison equation (1) for tight-binding inhibitors to the relative reaction velocity using non-linear regression (Marquardt-Levenberg algorithm, Sigma Plot 11). […]
Substrate-independent inhibition constants Ki were calculated from Ki ^app and Km of the enzyme according to (2). […]

[2] = molecular target: Human matriptase-1 (Homo sapiens, UniProt Q9Y5Y6); experiment: Matriptase-1 inhibition assay (Ki / Ki app); details: read-out: Ki (Matriptase-1); substrate-independent Ki from Ki app (Morrison equation) and Km; 250 µM substrate; preincubation 30 min RT; read over 30 min; triplicate
[3] = tested on: uPA activation by matriptase-1 on the surface of PC-3 cells; experiment: Cell inhibition assay: uPA activation by matriptase-1 on the surface of PC-3 cells; type: cell-based, human
[4] = molecular target: matriptase-1; details: cited from earlier work

Ki [1] [nM]	Ki [2] [nM]	IC50 ([3]; 1×10^5 PC-3 cells, 250 µM Bz-β-Ala-Gly-Arg-pNA, overnight, absorbance 405 nm, Figure 4) [nM]	IC50 relative to MCoTI-based inhibitor Var. 4 ([3]; PC-3 cells, uPA activation assay)	SMILES	Ki (matriptase-1) [4]
118	7.1	2820	tenfold higher	N=C(N)c1cccc(C[C@H](NS(=O)(=O)c2cccc(NC(=O)CCN)c2)C(=O)N2CCC(CCN)CC2)c1	single digit nanomolar range
544	28.2	–	–	N=C(N)c1cccc(C[C@H](NS(=O)(=O)c2ccc(C3CCCCC3)cc2)C(=O)N2CCC(C(=O)N3CCN(C(=N)N)CC3)CC2)c1	–
